Test results reported in publication PMC9773353 (ACS Omega, 2022).

Target: hCA II (Homo sapiens, UniProt P00918)
Assay: Carbonic anhydrase inhibition assay
Type: biochemical
Settings: text grading of Table 4 results

inhibition of hCA-II in words: did not show any inhibition
Substance: 3-(3-(3,4-Dimethoxybenzoyl) thioureido) Benzoic Acid [Compound 21]
